This is one part of the list.

In this assay the test system is A. baumannii ATCC 17978. As to the kind of experiment: relative growth (fraction of control); higher = less inhibition. To be noted: 50 µM.
Turning to `CN(C)CC(=O)N[C@@H]1C=C[C@@H](CC(=O)O)O[C@@H]1CO`, the relative growth was 1.01. Molecule `CC(C)(O/N=C(\C(=O)N[C@@H]1C(=O)N2C(C(=O)[O-])=C(C[n+]3ccccc3)CSC12)c1csc(N)n1)C(=O)O` (some centres undefined) showed a relative growth of 0.937. For `CC(C)NC(=O)N[C@@H]1CC[C@H](CCN)O[C@H]1CO`, the relative growth was found to be 1.02. Next, `CN(C)C(=O)c1cccc(-c2cccc(-c3nc(C(=O)N4CCCCC4)cc4c3[C@H](CCO)N([S@@](=O)C(C)(C)C)C4)c2)c1`: 1.13; `C[C@@H]1CN([C@H](C)CO)S(=O)(=O)c2ccc(C#CC3CC3)cc2O[C@@H]1CN(C)Cc1ccccc1F`: 0.865. Next, `COc1ccc(C#Cc2cnc3c(c2)C(=O)N([C@H](C)CO)C[C@@H](C)[C@@H](CN(C)C(=O)CN(C)C)O3)cc1`: 0.877; `O=C(C[C@@H]1C=C[C@H](NS(=O)(=O)c2ccc(F)cc2)[C@H](CO)O1)NCc1ccc(Cl)c(Cl)c1`: 0.769; `Nc1nnc(SC[C@@H](O)CO)s1`: 1.01. The value for `COCCCNC(=O)[C@@]1(Sc2ccc(C)cc2)CC(=O)N(C2Cc3ccccc3C2)[C@@H]1c1ccc(CO)cc1I` was 1.09; that for `N[C@@H](CCc1ccccc1Cl)c1ccc2c(c1)OCCO2` was 0.748; that for `O=C(C[C@@H]1C[C@@H]2c3cc(NS(=O)(=O)c4ccccc4)ccc3O[C@@H]2[C@H](CO)O1)NC1CCCCC1` was 0.955.

`Clc1ccc(-c2onc3cc(-c4ccccc4)ccc23)cc1` registered a relative growth of 1.1. The molecule `CC(=O)OC1CC[C@@]2(C)C(CC[C@]3(C)C2C2OC2[C@]24OC(=O)[C@@]5(CCC(C)C(C)C52)CC[C@]43C)C1(C)C` (some centres undefined) gave a relative growth of 1.07. In turn, `NC[C@@H]1O[C@H](O[C@@H]2[C@@H](CO)OC(O[C@@H]3[C@@H](O)[C@H](N)C[C@H](N)[C@H]3OC3O[C@H](CN)[C@@H](O)[C@H](O)[C@H]3N)[C@@H]2O)[C@H](N)[C@@H](O)[C@@H]1O.O=S(=O)(O)O.O=S(=O)(O)O.O=S(=O)(O)O` (some centres undefined) showed a relative growth of 1.02.

In turn, `CN(C)CCCCNC(=O)[C@H]1C[C@H]2C(=O)NCC(=O)N2[C@H]1c1cccc(OCCO)c1` returned a relative growth of 0.888. `COCC(=O)N1C[C@@H](C)[C@H](OC)CN(C)C(=O)c2ccc(NC(=O)c3ccc(OC)cc3)cc2OC[C@@H]1C` yielded a relative growth of 1.24. The value for `CO[C@H]1CN(C)C(=O)c2cc(NS(=O)(=O)CC(F)(F)F)ccc2OC[C@H](C)N(C(=O)NC(C)C)C[C@H]1C` was 0.972; that for `CN(C)c1cc[n+](C(=O)N2CCOCC2)cc1` was 1.08.

`COc1ccc(C(=O)Nc2ccc(CN3C(=O)[C@]4(O[C@H](CC(=O)N5CCC[C@H]5CO)[C@@H]([Si](C)(C)c5ccc(OC)cc5)[C@@H]4C)c4ccccc43)cc2)cc1`: the relative growth was found to be 1.01.

`CN(C)C(=O)C[C@@H]1CC[C@@H]2[C@H](COC[C@H](O)CN2S(=O)(=O)c2ccccc2)O1` yielded a relative growth of 1.08. The value for `COc1ccc(-c2cnc3c(c2)C(=O)N([C@@H](C)CO)C[C@H](C)[C@H](CN(C)C(=O)C2CCOCC2)O3)cc1` was 1.12; that for `CC1(C)[C@@H](OC(=O)CCC(=O)O)CC[C@@]2(C)[C@H]1CC[C@]1(C)[C@H]2C(=O)C=C2[C@@H]3C[C@@](C)(C(=O)O)CC[C@]3(C)CC[C@]21C` was 1.14. Next, `N[C@H]1CC[C@H](CCn2cc(-c3ccccn3)nn2)O[C@@H]1CO`: 0.9; `CC(C)(C)OC(=O)C[C@H]1CC=CC[C@H](CC(=O)NCCO)C(=O)N[C@@H](Cc2c[nH]c3ccccc23)COC1=O`: 1.01; `COc1ccccc1CNC(=O)C[C@H]1CC[C@@H]2[C@H](COC[C@@H](O)CN2C(=O)Nc2ccc(Cl)cc2)O1`: 0.993.

For `CC(C)(C)c1ccc(C(=O)Nc2cccc(C(F)(F)F)c2)cc1`, the relative growth was determined as 1.04.

For the molecule `c1cn2c3c(n1)CCCc3c1cc(C3CCCCC3)ccc12`, the relative growth amounted to 1.14. Next, `Cc1cc2c(cc1C(=O)c1ccc(C(=O)O)cc1)C(C)(C)CCC2(C)C`: 1.05; `C=C1CCC(=O)C(C)CCC2C1CC2(C)C` (centres undefined): 1.15. The value for `C[C@@H]1CN([C@H](C)CO)S(=O)(=O)c2ccc(C#CC3CCCCC3)cc2O[C@H]1CN(C)C(=O)Cc1ccncc1` was 0.894; that for `O=C(C[C@H]1C[C@H]2c3cc(NS(=O)(=O)c4ccc(F)cc4)ccc3O[C@H]2[C@H](CO)O1)NCCc1ccccc1` was 0.938. The value for `Cc1cc([N+](=O)[O-])nn1CC(=O)N1CCOCC1` was 0.974; that for `O=C(NO)c1cccc(C(=O)N/N=C/[C@H](O)[C@@H](O)[C@H](O)[C@H](O)CO)c1` was 1.12. `COc1ccc(C#Cc2ccc3c(c2)[C@]2(C(=O)N3)[C@H](C(=O)Nc3nc4ccccc4s3)[C@H]3C(=O)O[C@H](c4ccccc4)[C@H](c4ccccc4)N3[C@@H]2c2ccccc2OCCO)cc1` registered a relative growth of 1.1. As for `CCCN(C)C[C@H]1Oc2cc(C#Cc3ccccc3OC)ccc2S(=O)(=O)N([C@@H](C)CO)C[C@H]1C`, the relative growth worked out at 0.964. Next, `O=C(C[C@H]1CC[C@@H]2[C@H](COC[C@H](O)CN2C(=O)C2CC2)O1)NCc1ccncc1`: 1.12; `Nc1nc(=O)c2ncn(COCCO)c2[nH]1`: 0.967; `Nc1nnnn1CC(=O)OCC(=O)Nc1ccccc1`: 0.869. Next, `CC(=O)O[C@]1(C(C)=O)CCC2C3C=C(C)C4=CC(=O)CCC4(C)C3CCC21C` (some centres undefined): 1.11; `CCn1c(-n2nc(C)cc2C)nc2c1c(=O)n(CC(N)=O)c(=O)n2C`: 0.986. The value for `CC(=O)N[C@H]1C(=O)Nc2ccc(F)cc21` was 1.03; that for `Cc1cc(O)cc(O)c1C(=O)O` was 0.956; that for `COCCOC(=O)N1C(=O)[C@@]2(c3cc(C#CCCO)ccc31)[C@H](C(=O)N1CCc3cc(OC)c(OC)cc3C1)[C@H]1C(=O)O[C@H](c3ccccc3)[C@H](c3ccccc3)N1[C@@H]2c1ccccc1OCCO` was 1.03. Molecule `CC(C)NC(=O)N[C@@H]1C=C[C@H](CC(=O)NCCN2CCCC2)O[C@H]1CO` yielded a relative growth of 0.957. The value for `CCc1c(C(=O)OC)nnc2cc(C)nn12` was 1.14. The value for `O=C1NC(=O)[C@@]2(CC[C@H](C(=O)O)C2)N1` was 1.01; that for `C[C@H]1CN([C@@H](C)CO)S(=O)(=O)c2ccc(C3=CCCC3)cc2O[C@@H]1CN(C)C(=O)C1CCOCC1` was 0.99. The value for `O=C(O)c1cn(-c2ccccc2)nn1` was 1.01; that for `CN(C)[C@@H]1C(O)=C(C(N)=O)C(=O)[C@@]2(O)C(O)=C3C(=O)c4c(O)ccc(Cl)c4[C@@](C)(O)[C@H]3C[C@@H]12.Cl` was 0.171; that for `CCS(=O)(=O)Nc1ccc2c(c1)C(=O)N(C)C[C@H](OC)[C@@H](C)CN(Cc1ccccn1)[C@H](C)CO2` was 1.06. As to `O=C(N[C@@H]1CC[C@H](CC(=O)N2CCOCC2)O[C@H]1CO)c1ccccn1`, the relative growth came out at 1.04. Consider `CCOC(=O)CNc1n[nH]c(=O)[nH]c1=O`, for which the relative growth came out at 1.1. The value for `NNC(=O)[C@@H]1C(c2ccccc2)[C@H]1C(=O)NN` (some centres undefined) was 0.995; that for `CN(C)C(=O)C[C@@H]1CC[C@H]2[C@@H](COC[C@H](O)CN2S(=O)(=O)c2ccccc2)O1` was 0.937; that for `Cc1[nH]c(=O)[nH]c(=O)c1S(=O)(=O)NCc1ccccn1` was 0.784. Next, `COc1ccc(S(=O)(=O)N(C)C[C@@H]2Oc3cc(Br)ccc3S(=O)(=O)N([C@H](C)CO)C[C@@H]2C)cc1`: 0.921. `C[C@@H](N)c1cnn(-c2ccc(F)cc2)c1` gave a relative growth of 1.03. Next, `CC(=O)NCCCC[C@@H]1NC(=O)[C@@H]2C[C@H](C(=O)NCCCCCNC(=O)CS)[C@H](c3cccc(OCCO)c3)N2C1=O`: 0.86. `CCO[C@@H]1OC(C(=O)N2CCN(Cc3ccc4c(c3)OCO4)CC2)=C[C@H](c2ccc3c(c2)OCO3)[C@H]1CCCO` returned a relative growth of 0.813. Next, `CO[C@H]1CN(C)C(=O)c2ccc(NS(=O)(=O)c3cn(C)cn3)cc2OC[C@H](C)N(Cc2cccc(F)c2)C[C@H]1C`: 1.09. Consider `CC(=O)O[C@H]1CC2CCC3C(CC[C@@]4(C)C3C[C@H]([N+]3(C)CCCCC3)[C@@H]4OC(C)=O)[C@@]2(C)C[C@@H]1N1CCCCC1.[Br-]` (some centres undefined), for which the relative growth came to 0.949. Regarding `O=C(CCCCC(=O)N/N=C/[C@@H](O)[C@H](O)[C@H](O)CO)NO`, the relative growth worked out at 0.912.

As for `CC(=O)NC[C@H]1CN(c2ccc(N3CCOCC3)c(F)c2)C(=O)O1`, the relative growth came out at 0.533.

Consider `Cc1ccc(O)c(C(C)(C)C)c1`, for which the relative growth amounted to 1.01. Next, `O=C(N1CCOCC1)[C@@]1(CCS(=O)(=O)c2ccccc2)COC(c2ccc(OCCCO)cc2)=N1`: 0.945.

Molecule `CCCNC(C)C(=O)Nc1ccccc1C.Cl` (centres undefined) had a relative growth of 0.958.

Take `C[C@@H]1CN([C@@H](C)CO)C(=O)c2cc(C#CCC3CCCC3)cnc2O[C@H]1CN(C)C(=O)c1cnccn1`: the relative growth worked out at 0.866. The value for `C[C@@H]1CN([C@@H](C)CO)S(=O)(=O)c2ccc(C#Cc3cccc(F)c3)cc2O[C@@H]1CN(C)C(=O)CN1CCOCC1` was 0.933; that for `Cc1noc(C)c1NC(=O)N(C)C[C@H]1Oc2ncc(C#CCN(C)C)cc2C(=O)N([C@H](C)CO)C[C@@H]1C` was 1.13; that for `COC(=O)[C@@H]1C(O)CC[C@H]2CN3CCc4c([nH]c5ccccc45)[C@@H]3C[C@@H]21` (some centres undefined) was 1.08. The value for `NC(=O)c1cc[n+](CC2=C(C(=O)[O-])N3C(=O)[C@@H](NC(=O)Cc4cccs4)[C@H]3SC2)cc1` was 1.06. Molecule `O=C1C(O)=C(O)C(=O)C(O)=C1O` returned a relative growth of 1.16. Next, `Cc1ccccc1S(=O)(=O)N1C[C@@H](O)COC[C@H]2O[C@H](CC(=O)NCc3ccccc3Cl)CC[C@@H]21`: 0.886. The value for `C[C@@H]1CN([C@@H](C)CO)S(=O)(=O)c2ccc(C#Cc3ccc(F)cc3)cc2O[C@H]1CN(C)S(=O)(=O)c1cn(C)cn1` was 1.1; that for `COc1ccc2c(c1)c(CC(=O)OCC(=O)O)c(C)n2C(=O)c1ccc(Cl)cc1` was 1.24. Next, `COC(=O)c1cc(=O)n2ccccc2c1C#N`: 1.03; `CC(C)CCCC(C)[C@H]1CCC2C3CC=C4CC(=O)CC[C@]4(C)C3CC[C@@]21C` (some centres undefined): 1.37. For the molecule `Cc1cc(C)nc(SCC(=O)NN)n1`, the relative growth stood at 1.01. The value for `Cc1cncc2cccc(S(=O)(=O)N[C@H]3CN[C@@H](COC(=O)NCCOCCOCCN)C3)c12` was 1.03.
